Measured values published in patent US9889176B2, “Treating renal and liver dysfunction with TLR4 antagonists” (YAQRIT LIMITED, priority 2010, dated 2018).

System: BDL rats
Assay: Brain TLR4 expression, brain water and survival in BDL rats with or without LPS
Type: in vivo
Conditions: BDL rats administered LPS; FIG. 25
Excerpt: These experiments utilised an established animal model of cirrhosis, the bile duct ligated (BDL) rat. BDL rats may be generated by methods known in the art. For example, male Sprague-Dawley rats (200-250 g) may be used for this procedure. Following anaesthetisation, a mid-line laparotamy may be performed, the bile duct exposed, triply ligated with 4.0 silk suture, and severed between the second and third ligature. The wound is then closed in layers with absorbable suture, and the animal allowed to recover in a quiet room before being returned to the animal storage facility. 6 groups of Sprague-Dawley rats were studied: n=6 in each group. […] Experiments were carried out using Sham treated and BDL rats as described above.

CCn1cc(C(=O)O)c(=O)c2cc(F)c(N3CCNCC3)cc21 [Norfloxacin]
survival: improvement in survival
